Biological target: T1, GluN2B receptors (Rattus norvegicus, UniProt P35439+Q00960)
T1 construct: from tissue; host or cells: brain of living male rats (PET imaging)
Assay: ED50 for pre-blocking of GluN2B radioligand uptake in rat whole brain (PET)
Format: in vivo
Conditions: radioligand ^11C-(−)-NR2B-Me, AUC 20-90 min
Protocol: For radioligand injection, a polyethylene catheter (PE 10) was inserted into the penile vein of a male rat and then secured with tissue adhesive and tape. […] Body temperature was monitored with a rectal probe. All PET scans were performed on a microPET Focus 220 scanner (Siemens Medical Solutions) (7,8). Data were acquired in listmode and reconstructed with Fourier rebinning + 2D filtered backprojection. A transmission scan was acquired before radioligand injection for attenuation correction. Dynamic scanning began at the time of a one-minute intravenous bolus injection of the radioligand under study (55 ± 19 MBq; volume 0.2 to 1.0 mL). The injected mass dose was 3 ± 1 nmol/kg. Challenge agents were administered intravenously 10 minutes before the radioligand for pre-blocking studies or 10 minutes after the radioligand for displacement studies. Tomographic images were analyzed with pixel-wise modeling computer software (PMOD 2.6; PMOD Group). Regions-of-interest in the brain were delineated, and time-activity curves calculated as SUV versus time.
Pre-blocking and displacement experiments were performed to assess radioligand target engagement and radioligand selectivity in vivo. […] Areas-under the curve (AUCs) from time-activity curves between 20 and 90 minutes were calculated for each radioligand. […] Numerical data are expressed as mean ± S.D. for n>2, or as mean and range for n = 2.

Protein sequences, listed by entry. Tags and fused reporters are not part of them. Residues count along the entry.
UniProt Q00960, 27-1482: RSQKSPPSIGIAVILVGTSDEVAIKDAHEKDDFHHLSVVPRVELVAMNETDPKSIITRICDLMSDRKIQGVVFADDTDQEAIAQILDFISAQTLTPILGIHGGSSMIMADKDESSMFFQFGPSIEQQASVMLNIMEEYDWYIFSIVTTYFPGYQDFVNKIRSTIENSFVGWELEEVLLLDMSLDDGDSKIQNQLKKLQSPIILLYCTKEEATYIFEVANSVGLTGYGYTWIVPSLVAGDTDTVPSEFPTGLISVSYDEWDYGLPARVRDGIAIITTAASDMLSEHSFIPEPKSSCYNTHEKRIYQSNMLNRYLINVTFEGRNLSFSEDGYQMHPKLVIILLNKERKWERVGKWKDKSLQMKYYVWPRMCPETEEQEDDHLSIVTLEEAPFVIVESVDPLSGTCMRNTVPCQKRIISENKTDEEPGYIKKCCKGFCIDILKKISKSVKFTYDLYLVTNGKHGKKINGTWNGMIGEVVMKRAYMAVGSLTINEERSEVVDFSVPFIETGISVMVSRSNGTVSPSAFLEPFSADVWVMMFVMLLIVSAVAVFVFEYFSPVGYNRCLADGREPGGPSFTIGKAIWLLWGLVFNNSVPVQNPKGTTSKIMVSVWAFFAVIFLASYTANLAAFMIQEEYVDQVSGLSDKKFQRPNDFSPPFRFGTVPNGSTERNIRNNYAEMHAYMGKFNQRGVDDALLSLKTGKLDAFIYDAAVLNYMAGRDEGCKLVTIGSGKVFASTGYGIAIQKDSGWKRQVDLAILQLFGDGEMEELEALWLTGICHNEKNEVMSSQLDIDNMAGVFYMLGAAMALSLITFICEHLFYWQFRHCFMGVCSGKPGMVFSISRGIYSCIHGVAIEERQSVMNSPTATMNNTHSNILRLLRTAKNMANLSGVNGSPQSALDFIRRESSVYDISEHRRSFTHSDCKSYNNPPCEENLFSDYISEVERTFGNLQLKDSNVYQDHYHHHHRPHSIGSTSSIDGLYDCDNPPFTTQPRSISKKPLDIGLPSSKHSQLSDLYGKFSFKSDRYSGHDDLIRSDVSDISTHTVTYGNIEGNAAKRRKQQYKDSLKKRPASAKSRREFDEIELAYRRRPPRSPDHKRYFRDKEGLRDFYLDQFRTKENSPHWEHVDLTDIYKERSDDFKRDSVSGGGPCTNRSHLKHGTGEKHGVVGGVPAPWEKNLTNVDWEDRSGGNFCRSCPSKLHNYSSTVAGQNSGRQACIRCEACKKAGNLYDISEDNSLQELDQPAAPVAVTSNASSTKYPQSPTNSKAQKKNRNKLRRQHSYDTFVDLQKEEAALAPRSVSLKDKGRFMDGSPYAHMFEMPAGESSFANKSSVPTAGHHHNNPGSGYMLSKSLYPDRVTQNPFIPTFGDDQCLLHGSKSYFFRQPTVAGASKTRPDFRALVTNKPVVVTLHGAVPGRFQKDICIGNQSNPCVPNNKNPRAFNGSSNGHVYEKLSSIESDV

Substance: (+)-SKF10047
- ED50 in rat whole brain in vivo ^11C-(−)-NR2B-Me: > 1000 nmol/kg

From publication PMC10076467 (EJNMMI Research, 2023)
